## Curated experimental data: logP (octanol/water) values

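OPERA's authors assembled the values from existing databases and did not measure them anew. The files give a single number for a compound and property, which may rest on several reports. Conditions of the individual experiments are not part of the data. A value may pool stereoisomers or salt forms, and the file does not say which form was measured. Unmarked limits or estimates from the upstream databases cannot be ruled out.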

The octanol-water partition coefficient is given as log10; larger values mean a more lipophilic compound. Cells with "–" have no entry in this list. The databases behind each value are named after "via".

| structure (SMILES) | name | logP | via |
|---|---|---|---|
| COC1(OC)CCC2=C(CC[C@@H]3[C@@H]2CC[C@]2(C)C(=O)CC[C@@H]32)C1 | 3,3-Dimethoxyestr-5(10)-en-17-one | 4.04 | eChemPortal |
| C[C@@H]1O[C@@H]1P(=O)(O)O | Fosfomycin | -1.6 | PubChem |
| C=C(CO)C1CC=C(C)CC1 (configuration not stated) | 3-Cyclohexene-1-ethanol, 4-methyl-.beta.-methylene- | 3.17 | OCHEM |
| C1CNCCNCCNCCN1 | Cyclen | -1.5 | eChemPortal |
| CC(C)(C)Cl | t-Butylchloride | 2.38 | eChemPortal |
| CCOC(=O)CC1(C)OCC(C)O1 (configuration not stated) | Ethyl 2,4-dimethyl-1,3-dioxolane-2-acetate | 1.8 | eChemPortal |
| CCCC(=O)OCCc1ccccc1 | 2-Phenylethyl butanoate | 2.48 | eChemPortal |
| CCCCCCCCCCCC(=O)NCCCC[C@H](N)C(=O)O | L-Lysine, N6-(1-oxododecyl)- | 1.9 | eChemPortal |
| CCN(CCOc1ccc(C2CCCCC2)cc1)c1ccc(C=C(C#N)C#N)c(C)c1 | – | 6.8 | eChemPortal |
| CC(CO)COC1CC2CCC1(C)C2(C)C (configuration not stated) | – | 3.31 | eChemPortal |
| Cc1cccc(Cl)c1C | 1,2-Dimethyl-3-chlorobenzene | 4.1 | eChemPortal |
| CCCCCCCC=O | Octanal | 3.5 | PubChem, eChemPortal |
| CN(C)CCOC(c1ccc(Cl)cc1)c1ccccn1 (configuration not stated) | Carbinoxamine | 2.6 | PubChem |
| CC(O)COC(=O)O[C@@H]1C[C@H](C)CC[C@H]1C(C)C (stereo partly drawn) | – | 3.72 | eChemPortal |
| CC(C)C(=O)OCCOc1ccccc1 | 2-Phenoxyethyl isobutyrate | 3.2 | eChemPortal |
| CC(C)(C)OC(=O)N[C@@H](Cc1ccccc1)[C@@H](O)CN(Cc1ccc(-c2ccccn2)cc1)NC(=O)OC(C)(C)C | – | 3.9 | eChemPortal |
| Br.Nc1c(Br)cc(Br)cc1CN[C@H]1CC[C@H](O)CC1 | – | 2.8 | eChemPortal |
| C=CC(=O)OCC1(CC)COCOC1 | (5-Ethyl-1,3-dioxan-5-yl)methyl 2-propenoate | 1.9 | eChemPortal |
| CCC(C)OC(=O)N1CCCCC1CCO (configuration not stated) | Icaridin | 2.11 | PubChem |
| CC(CC(N)=O)n1nnc2ccccc21 (configuration not stated) | 3-(1H-Benzotriazol-1-yl)butanamide | 0.75 | OCHEM |
| O=C1OC(C(O)CO)C([O-])=C1OP(=O)([O-])[O-].[Na+].[Na+].[Na+] (configuration not stated) | Sodium ascorbyl phosphate | -4 | eChemPortal |
| O=C1CCCCCCCCCCCC(=O)OCCO1 | 1,4-Dioxacycloheptadecane-5,17-dione | 4.3 | eChemPortal |
| O=C(Nc1ccccc1SSc1ccccc1NC(=O)c1ccccc1)c1ccccc1 | 2,2'-Dibenzoylaminodiphenyl disulfide | 4 | eChemPortal |
| Cl.NC(CO)(CO)CO | Tromethamine hydrochloride | -3.6 | eChemPortal |
| CC(C)(O/N=C(\C(=O)NC1C(=O)N2C(C(=O)[O-])=C(C[n+]3ccccc3)CSC12)c1csc(N)n1)C(=O)O.O.O.O.O.O (stereo partly drawn) | Ceftazidime pentahydrate | -1.6 | OCHEM, PubChem |
| CC(C)CNCC(C)C | 2-Methyl-N-(2-methylpropyl)-1-propanamine | 2.63 | PubChem |
| CCCCCC[N+](C)(C)C.[I-] | N,N,N-Trimethylhexan-1-aminium iodide | -1.84 | OCHEM |
| COc1nc(OC)nc(C2C(=O)Nc3c(F)cccc32)n1 (configuration not stated) | 3-(4,6-Dimethoxy-1,3,5-triazin-2-yl)-7-fluoroindolin-2-one | 2.1 | eChemPortal |
| CCCCCCCCCCCCCC(=O)NC(CCC(=O)O)C(=O)[O-].[K+] (configuration not stated) | Potassium myristoyl glutamate | 3.74 | eChemPortal |
| C=COCCCCOC=C | Butane, 1,4-bis(ethenyloxy)- | 2.9 | eChemPortal |
| CCOC(=O)CCN(C(=O)c1ccc(NC)c(N)c1)c1ccccn1 | – | 1.37 | eChemPortal |

Excerpt, the final 3 entries:

| structure (SMILES) | name | logP | via |
|---|---|---|---|
| CCCCCCCCCCCCCC(=O)NC(CCC(=O)O)C(=O)[O-].[K+] (configuration not stated) | Potassium myristoyl glutamate | 3.74 | eChemPortal |
| C=COCCCCOC=C | Butane, 1,4-bis(ethenyloxy)- | 2.9 | eChemPortal |
| CCOC(=O)CCN(C(=O)c1ccc(NC)c(N)c1)c1ccccn1 | – | 1.37 | eChemPortal |

From the experimental data distributed with OPERA 2.9.